Measurements as given in ChEMBL document CHEMBL6134838, “Discovery of c-Kit as a New Therapeutic Target in LPS-Induced Acute Lung Injury through Novel Phenylamide Derivative D9” (J Med Chem, 2025).
The source made the active and inactive calls. The rule behind the calls is not given here.

The chains behind the UniProt entries cited, without tags or fusion partners. Where a name states a change or a piece, a line headed by the entry shows the natural chain unless it says otherwise.
UniProt Q00536: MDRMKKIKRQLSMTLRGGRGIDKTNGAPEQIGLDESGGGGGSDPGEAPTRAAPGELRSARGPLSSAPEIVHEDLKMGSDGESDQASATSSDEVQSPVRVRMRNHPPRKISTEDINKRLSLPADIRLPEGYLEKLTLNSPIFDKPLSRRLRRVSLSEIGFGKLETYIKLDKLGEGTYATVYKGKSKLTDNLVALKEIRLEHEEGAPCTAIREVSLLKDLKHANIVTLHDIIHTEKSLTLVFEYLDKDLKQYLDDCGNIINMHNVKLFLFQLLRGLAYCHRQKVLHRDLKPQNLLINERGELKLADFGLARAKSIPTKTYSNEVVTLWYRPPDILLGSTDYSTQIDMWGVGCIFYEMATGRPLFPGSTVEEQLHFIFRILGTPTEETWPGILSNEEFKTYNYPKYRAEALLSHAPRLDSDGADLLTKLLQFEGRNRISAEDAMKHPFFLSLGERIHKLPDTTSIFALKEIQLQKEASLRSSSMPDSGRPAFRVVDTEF
UniProt P05532: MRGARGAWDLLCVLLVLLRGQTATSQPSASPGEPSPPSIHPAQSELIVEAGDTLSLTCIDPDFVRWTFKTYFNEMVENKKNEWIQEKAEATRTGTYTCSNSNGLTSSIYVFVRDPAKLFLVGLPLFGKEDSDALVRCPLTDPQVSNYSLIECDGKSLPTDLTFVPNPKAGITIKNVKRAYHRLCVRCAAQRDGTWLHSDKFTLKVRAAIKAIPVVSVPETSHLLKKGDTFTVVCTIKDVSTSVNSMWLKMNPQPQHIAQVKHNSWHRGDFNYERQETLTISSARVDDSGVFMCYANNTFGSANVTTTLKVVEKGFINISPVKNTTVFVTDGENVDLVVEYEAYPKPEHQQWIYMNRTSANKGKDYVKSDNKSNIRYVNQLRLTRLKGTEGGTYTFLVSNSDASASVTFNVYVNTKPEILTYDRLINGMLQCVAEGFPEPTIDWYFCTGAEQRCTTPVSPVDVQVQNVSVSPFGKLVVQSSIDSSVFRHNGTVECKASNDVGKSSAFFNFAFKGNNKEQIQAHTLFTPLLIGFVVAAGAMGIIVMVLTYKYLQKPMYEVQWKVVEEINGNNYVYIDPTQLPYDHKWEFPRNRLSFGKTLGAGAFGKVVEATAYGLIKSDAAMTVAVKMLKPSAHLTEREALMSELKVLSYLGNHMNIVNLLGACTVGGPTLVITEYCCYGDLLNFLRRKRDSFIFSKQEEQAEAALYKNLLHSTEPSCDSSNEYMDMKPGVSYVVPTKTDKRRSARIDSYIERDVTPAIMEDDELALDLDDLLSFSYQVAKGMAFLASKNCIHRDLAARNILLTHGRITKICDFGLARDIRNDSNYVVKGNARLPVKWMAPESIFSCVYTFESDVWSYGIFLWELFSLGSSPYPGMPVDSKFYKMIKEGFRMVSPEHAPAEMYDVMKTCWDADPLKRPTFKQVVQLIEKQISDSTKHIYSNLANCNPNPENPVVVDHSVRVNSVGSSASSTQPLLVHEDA
UniProt P78368: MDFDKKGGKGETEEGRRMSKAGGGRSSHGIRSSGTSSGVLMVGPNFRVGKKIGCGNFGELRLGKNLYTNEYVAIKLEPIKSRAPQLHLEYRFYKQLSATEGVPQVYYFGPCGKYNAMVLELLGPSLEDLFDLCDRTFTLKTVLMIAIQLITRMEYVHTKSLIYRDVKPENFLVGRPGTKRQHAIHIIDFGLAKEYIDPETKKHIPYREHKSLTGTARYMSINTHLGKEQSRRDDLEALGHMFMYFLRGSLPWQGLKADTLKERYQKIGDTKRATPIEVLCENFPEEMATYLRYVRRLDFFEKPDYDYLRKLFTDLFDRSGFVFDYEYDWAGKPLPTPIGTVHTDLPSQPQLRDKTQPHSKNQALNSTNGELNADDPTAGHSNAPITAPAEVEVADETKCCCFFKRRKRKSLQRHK
UniProt P36888, whole entry: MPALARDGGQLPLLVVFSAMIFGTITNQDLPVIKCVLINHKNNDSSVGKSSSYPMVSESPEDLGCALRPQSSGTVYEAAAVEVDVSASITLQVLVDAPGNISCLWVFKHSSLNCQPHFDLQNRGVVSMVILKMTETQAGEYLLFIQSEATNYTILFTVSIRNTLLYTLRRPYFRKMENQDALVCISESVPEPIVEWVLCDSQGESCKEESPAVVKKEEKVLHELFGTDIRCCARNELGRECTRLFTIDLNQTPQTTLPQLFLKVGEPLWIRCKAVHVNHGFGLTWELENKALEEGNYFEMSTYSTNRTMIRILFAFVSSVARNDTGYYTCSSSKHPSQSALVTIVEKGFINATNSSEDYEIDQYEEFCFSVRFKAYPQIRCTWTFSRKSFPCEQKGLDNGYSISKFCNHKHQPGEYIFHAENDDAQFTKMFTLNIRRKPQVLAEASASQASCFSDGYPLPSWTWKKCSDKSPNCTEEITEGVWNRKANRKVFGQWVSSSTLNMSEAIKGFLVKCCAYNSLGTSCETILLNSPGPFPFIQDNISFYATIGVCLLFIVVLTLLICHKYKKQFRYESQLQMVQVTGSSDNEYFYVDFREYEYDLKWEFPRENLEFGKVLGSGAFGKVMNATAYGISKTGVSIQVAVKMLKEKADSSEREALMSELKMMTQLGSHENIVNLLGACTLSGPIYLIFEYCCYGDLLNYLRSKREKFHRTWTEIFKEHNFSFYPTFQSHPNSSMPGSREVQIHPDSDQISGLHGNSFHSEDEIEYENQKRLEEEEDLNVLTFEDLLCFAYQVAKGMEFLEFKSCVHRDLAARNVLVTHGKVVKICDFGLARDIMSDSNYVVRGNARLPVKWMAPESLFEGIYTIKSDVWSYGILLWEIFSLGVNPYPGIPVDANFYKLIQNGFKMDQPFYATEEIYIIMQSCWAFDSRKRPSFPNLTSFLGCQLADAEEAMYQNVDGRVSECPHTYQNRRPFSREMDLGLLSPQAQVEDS

Columns and labels:
J774.A1 = test: Antiinflammatory activity against mouse J774.A1 cells assessed as inhibition of LPS-stimulated IL-6 release measured for 24 hrs by ELISA method relative to control; format: functional
[1] = Toxicity in C57BL/6 mouse assessed as lung damage at 20 mg/kg, IG by H and E staining based analysis; format: organism-based; conditions: in vivo, po
[2] = target: Cyclin-dependent kinase 16 (Homo sapiens) (UniProt Q00536); test: Inhibition of PCTAIRE1 (unknown origin) assessed as residual activity at 10 uM relative to control
[3] = Toxicity in C57BL/6 mouse assessed as body weight loss at 20 mg/kg, IG measured every 12 hrs for 7 days; format: organism-based; conditions: in vivo, po
[4] = target: Mast/stem cell growth factor receptor Kit (Mus musculus) (UniProt P05532); test: Inhibition of LPS-induced c-Kit phosphorylation in mouse J774.A1 cells at 5 uM incubated for 24 hrs by Western blot analysis; format: cell-based
[5] = Toxicity in c-KIT knockdown C57BL/6 mouse assessed as lung damage at 20 mg/kg, IG by H and E staining based analysis; format: organism-based; conditions: in vivo, po
[6] = target: Mast/stem cell growth factor receptor Kit (Mus musculus) (UniProt P05532); test: Induction of thermal stabilization of c-KIT in mouse J774.A1 cells at 45 to 57 degreeC at 10 uM incubated for 4 hrs by CETSA analysis; format: cell-based
[7] = Acute toxicity in ICR mouse assessed as lung damage at 500 mg/kg, IG measured up to 10 days by H and E staining based analysis; format: organism-based; conditions: in vivo, po, 240 h, time < 10 day
[8] = target: Casein kinase I isoform gamma-2 (Homo sapiens) (UniProt P78368); test: Inhibition of CK1g2 (unknown origin) assessed as residual activity at 10 uM relative to control
[9] = Acute toxicity in ICR mouse assessed as spleen damage at 500 mg/kg, IG measured up to 10 days by H and E staining based analysis; format: organism-based; conditions: in vivo, po, 240 h, time < 10 day
[10] = Acute toxicity in ICR mouse assessed as kidney damage at 500 mg/kg, IG measured up to 10 days by H and E staining based analysis; format: organism-based; conditions: in vivo, po, 240 h, time < 10 day
[11] = Acute toxicity in ICR mouse assessed as liver damage at 500 mg/kg, IG measured up to 10 days by H and E staining based analysis; format: organism-based; conditions: in vivo, po, 240 h, time < 10 day
[12] = Acute toxicity in ICR mouse assessed as heart damage at 500 mg/kg, IG measured up to 10 days by H and E staining based analysis; format: organism-based; conditions: in vivo, po, 240 h, time < 10 day
[13] = target: Receptor-type tyrosine-protein kinase FLT3 (Homo sapiens) (UniProt P36888); test: Inhibition of FLT3 (unknown origin) assessed as residual activity at 10 uM relative to control
Mus musculus = test: Anti-inflammatory activity against CLP-induced sepsis C57BL/6 mouse model assessed as reduction in wet/dry ratio in lung at 20 mg/kg, IG pretreated with compound for 1 hr followed by CLP induction and measured every 12 hrs for 7 days; format: functional, organism-based; conditions: time 169.0 hrs

Which “inhibition (INH)” value (J774.A1) does the source give for `O=C(NCCc1cccs1)c1cc(Oc2ccc(NC(=O)c3cn(-c4ccc(F)cc4)c4ccccc4c3=O)cc2)ccn1` here?
The value was 74.04%.

What about the Activity [1] of the same molecule?
Its Activity is “Non-toxic”.

And the Activity [2]?
Its Activity is 70%.

What about the Activity [3] of the same molecule?
Its Activity is “Non-toxic”.

And the inhibition [4]?
Its inhibition is “Active”.

What about the Activity [5] of the same molecule?
Its Activity is “Non-toxic”.

And the Activity [6]?
The Activity was “Active”.

What about the Activity [7] of the same molecule?
The Activity was “Non-toxic”.

And the Activity [8]?
The Activity was 70%.

What about the Activity [9] of the same molecule?
Its Activity is “Non-toxic”.

What about the Activity [10] of the same molecule?
The Activity was “Non-toxic”.

What about the Activity [11] of the same molecule?
Its Activity is “Non-toxic”.

What about the Activity [12] of the same molecule?
Its Activity is “Non-toxic”.

What about the Activity [13] of the same molecule?
Its Activity is 70%.

With `O=C(NCCc1cccs1)c1cc(Oc2ccc(NC(=O)c3cn(-c4ccc(F)c(Cl)c4)c4ccccc4c3=O)cc2F)ccn1` as the molecule, how does the Activity (Mus musculus) read?
The Activity was “Active”.

Which inhibition (J774.A1) does the source give for `O=C(NCCCN1CCOCC1)c1cc(Oc2ccc(NC(=O)c3cn(-c4ccc(F)cc4)c4ccccc4c3=O)cc2)ccn1` here?
Its inhibition is “inactive”.
